System: Aorta
Test: Vasodilatory activity in Wistar rat endothelium-denuded thoracic aortic ring assessed as inhibition of phenylephrine-induced contraction […]
Format: functional, tissue-based
Procedure, shortened: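 Endothelium-denuded rat aorta strips are precontracted with phenylephrine. At the plateau, cumulative concentrations of test agent in DMSO are added. Relaxation is recorded isometrically and reported as EC50 ± SEM (μM). In a separate series, 1 μM ODQ is added 5 min before contraction, giving at least 30 min of preincubation before the vasodilator. At least five experiments.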

Question: `O=C(O)CCCCC(CO[N+](=O)[O-])O[N+](=O)[O-]` (configuration not stated) was tested. Which Activity did it give?
Answer: The Activity was “Dose-dependent effect”.

Question: Which Activity does the source give for `O=C(O)CCCC(CO[N+](=O)[O-])O[N+](=O)[O-]` (configuration not stated) here?
Answer: Its Activity is “Dose-dependent effect”.

From ChEMBL document CHEMBL1151960, “(Nitrooxyacyloxy)methyl esters of aspirin as novel nitric oxide releasing aspirins” (J Med Chem, 2009)
